Columns and labels:
[1] = molecular target: IL-23 mediated signalling (Homo sapiens, UniProt Q5VWK5); test: Functional inhibition of IL-23 mediated STAT3 signalling (phospho-STAT3 MSD) in DB cells; assay type: cell-based; conditions: Table 3-2, hIL-23 at EC80, read-out: hIL-23 (pSTAT3) antagonist IC50
human IL-23R = molecular target: T1, human IL-23R (Homo sapiens, UniProt Q5VWK5); test: biochemical
T1 sequence (Q5VWK5 22-629): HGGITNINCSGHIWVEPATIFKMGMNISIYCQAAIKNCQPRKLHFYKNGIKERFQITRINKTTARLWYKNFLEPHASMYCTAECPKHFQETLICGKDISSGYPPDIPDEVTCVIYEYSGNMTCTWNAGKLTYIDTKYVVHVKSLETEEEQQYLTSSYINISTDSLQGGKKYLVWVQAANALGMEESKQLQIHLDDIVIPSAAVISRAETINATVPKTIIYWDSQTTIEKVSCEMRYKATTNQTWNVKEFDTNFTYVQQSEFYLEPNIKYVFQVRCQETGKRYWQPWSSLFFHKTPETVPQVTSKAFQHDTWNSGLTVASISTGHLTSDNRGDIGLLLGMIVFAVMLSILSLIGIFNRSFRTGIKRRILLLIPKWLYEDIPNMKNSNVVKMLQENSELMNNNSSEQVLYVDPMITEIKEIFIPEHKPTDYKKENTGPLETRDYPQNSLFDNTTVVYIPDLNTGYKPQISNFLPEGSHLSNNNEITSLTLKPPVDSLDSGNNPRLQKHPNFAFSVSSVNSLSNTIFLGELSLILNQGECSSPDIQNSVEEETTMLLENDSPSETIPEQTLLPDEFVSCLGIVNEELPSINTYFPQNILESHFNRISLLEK

IC50 [1] [nM]	IC50 (human IL-23R) [nM]	Structure (SMILES)
1.3	–	CC(C)C[C@]1(C)NC(=O)[C@H](Cc2ccc3ccccc3c2)NC(=O)[C@H](Cc2ccc(OCCN)cc2)NC(=O)[C@@H]2CCC(=O)N[C@@H](CCCNC(=O)CC[C@@H](C(=O)N[C@@H](CCN)C(=O)N[C@@H](Cc3cccnc3)C(N)=O)NC1=O)CC(=O)N[C@@H]([C@@H](C)O)C(=O)N[C@@H](C(C)C)C(=O)N[C@@H](Cc1c[nH]c3ccccc13)C(=O)N[C@@H](CCC(N)=O)C(=O)N2 [Compound 12, [bLys](1c)(6c)^†TVWQE(6c)[Y(2-aminoethoxy)][2-Nal][2-Me-Leu]E(1c)[Dab][3-(3-Pyridyl)-Ala]-[NH2]]
–	1.3	CNC(=O)[C@H](Cc1cccnc1)NC(=O)[C@H](CCN)NC(=O)[C@@H]1CCCNC(=O)CC[C@@H]2NC(=O)CC[C@H](NC(=O)[C@H](CCC(N)=O)NC(=O)[C@H](Cc3c[nH]c4ccccc34)NC(=O)[C@H]([C@@H](C)O)NC2=O)C(=O)N[C@@H](Cc2ccc(OCCN)cc2)C(=O)N[C@@H](Cc2ccc3ccccc3c2)C(=O)N[C@@](C)(CC(C)C)C(=O)N1 [Compound 40, E(1c)(6c)^†TWQE(6c)[Y(2-aminoethoxy)][2-Nal][2-Me-Leu][Orn](1c)[Dab][3-(3-Pyridyl)-Ala]-[NHMe]]

Source: patent EP4471048A1, “PEPTIDE INHIBITORS OF INTERLEUKIN-23 RECEPTOR” (Zealand Pharma A/S, priority 2023, dated 2024)
